Assays:
BRD4-1 [1] = target: T1, BRD4-1 (Homo sapiens, UniProt O60885); experiment: Alpha assay, BRD4-1 binding to acetylated histone H4 peptide; settings: 15 nM BRD4-1, 200 nM H4 peptide, 60 minutes at 25° C.; geometric mean of a minimum of four determinations
T1 construct: made in house; host or cells: Escherichia coli
Method: Binding of the bromodomain BRD4-I to an acetylated histone H4 peptide was measured using a bead-based Amplified Luminescent Proximity Homogeneous Assay (ALPHA). […] BRD4-I was expressed and purified from Escherichia coli as an N-terminal His6-tagged protein. Nickel-Chelate ALPHA acceptor beads (Perkin Elmer) were used to specifically bind BRD4-1 and ALPHA streptavidin donor beads (Perkin Elmer) were used because they specifically recognized the biotinylated H4 peptide. […] Assays were performed in 50 mM Hepes (pH 7.5), 150 mM NaCl, 0.1 mg/ml BSA, 0.01% (v/v) Brij, 0.5% (v/v) DMSO, 200 nM H4 peptide and 15 nM of BRD4-1 protein. After an assay reaction time of 60 minutes at 25° C., binding was measured with 20 μg/ml streptavidin donor beads and 20 μg/ml nickle-chelate acceptor beads. ALPHA signal was detected on an Envision plate reader (Ex: 320 nm; Em: 570 nm; Ex time: 180 ms). […] All IC50 values represent geometric mean values of a minimum of four determinations.

BRD4-1 [2] = target: T1, BRD4-1; experiment: HTRF (TR-FRET) assay, BRD4-1 binding to acetylated histone H4 peptide; settings: 60 nM BRD4-1, 200 nM H4 peptide, 60 minutes at 25° C.; geometric mean of a minimum of four determinations
Method: (§1) Binding of the two tandem bromodomains, BRD4-1 and BRD4-2, to an acetylated histone H4 peptide was measured using a homogeneous time resolved fluorescence resonance energy transfer (TR-FRET) assay. […] BRD4-1 and BRD4-2 were expressed and purified from Escherichia coli as N-terminal His6-tagged proteins. An XL665 labeled anti-His antibody (Cisbio) was used to specifically bind BRD4 and a cryptate labeled streptavidin protein was used because it specifically recognized the biotinylated H4 peptide. […] After an assay reaction time of 60 minutes at 25° C., binding was measured with 2 nM crytptate labeled streptavidin and 10 nM anti-His-XL665 antibody. TR-FRET signal was detected on an Envision plate reader (Ex: 320 nm; Em: 615/665 nm; 100 us delay and 200 μs read window). […] All IC50 values represent geometric mean values of a minimum of four determinations.

BRD4-2 = target: T2, BRD4-2 (Homo sapiens, UniProt O60885); experiment: HTRF (TR-FRET) assay, BRD4-2 binding to acetylated histone H4 peptide; settings: 120 nM BRD4-2, 200 nM H4 peptide, 60 minutes at 25° C.; geometric mean of a minimum of four determinations
T2 construct: made in house; host or cells: Escherichia coli
Method: as §1

IC50 (BRD4-1 [1]): 3170 nM | IC50 (BRD4-1 [2]): 2090 nM | IC50 (BRD4-2): 2510 nM
SMILES: Cc1noc(C)c1-c1cc(/C=C/c2ccccc2)c2[nH]c(C3CC3)nc2c1 [Compound 1020-37, (E)-4-(2-cyclopropyl-4-styryl-1H-benzo[d]imidazol-6-yl)-3,5-dimethylisoxazole]
